Hits are enriched below; roughly 2.1% of the tested compounds scored in any of these assays.
Nrf2 activator: Nrf2 pathway activation | Potency, µM (highest dose often 46.1 µM), for inactives: top-dose activation, actives largely listed as activators | 410,000 tested, 0.31% active | AREc32 ARE-luciferase reporter (MCF7-derived line), luminescence, 24 h; also: potency is read from the fitted curve at half-maximal effect; % of control where 0% means no effect; nearly all actives have a fitted effect of over 65% in size
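AREc32 cells carrying an ARE-driven firefly luciferase, 1000 cells/well in OPTI-MEM with 5% FBS, dosed after overnight attachment and incubated 24 hr at 37 deg C. Steady-Glo luminescence read after 30 min at RT.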
miR-21 FLuc: miR-21 reporter, rising signal; Potency, µM (titrated, usually from 38.3 µM), without a hit: at the highest dose reporter change, positive = more light; AID 2288; 340,000 tested, under 10 active; HeLa miR-21 FLuc reporter, luciferase, 48 h; active = well fitted rising curve with a large enough effect; inconclusive = small, poorly fitted or top-dose-only effect; inactive = no such curve, though single readings can be large or run the other way;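 note: % of control where 0% means no effect; miR-21 action dims this reporter so a rising signal means less miR-21 action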
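HeLa cells stably expressing CMV-driven firefly luciferase with a downstream miR-21 binding sequence, endogenously expressing miR-21, were treated with titrations (up to about 40uM final) for 48 hours at 37 degree Celsius. Luciferase luminescence was read after lysis.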
GRP78 ERSR act: induces the endoplasmic reticulum stress response in human glioma cells. Potency, µM, without a hit: top-dose activation, most hits filed as activators. U87-MG GRP78 promoter luciferase reporter, 16 h. 420,000 tested, 0.02% active; also: potency is read from the fitted curve at half-maximal effect; series mostly up to about 76 µM; % of control where 0% means no effect; nearly all actives have a fitted effect of over 35% in size
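Stably transfected U87-MG human glioma cells carrying a GRP78-based luminescent sensor were seeded at 1000 cells/well, pin-dosed with compounds and incubated 16 h. Luciferase reagent was then added, and end-point luminescence was read after 10 min at room temperature.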
TSG101-PTAP inh: blocks PTAP/TSG101 interaction to inhibit HIV-1 budding; Q99816; Potency, µM (doses to about 115 µM), inactives show at the top dose activity change, negative = inhibition, most hits filed as inhibitors; 340,000 tested, under 10 active; Fluorescence polarization, FITC-PTAP peptide / Tsg101 binding; AID 493005; active = well fitted inhibition curve with a large enough effect in the main read-out, with a control signal flat, not every such curve was filed as active; inconclusive = small, poorly fitted or top-dose-only effect, or effect the other way, or a change in a side signal; inactive = no such curve, though single readings can be large or run the other way; also: potency is read from the fitted curve at half-maximal effect; % of control where 0% means no effect
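Fluorescence anisotropy tracks displacement of a FITC-tagged PTAP peptide (50 nM) from the Tsg101 binding domain (10 uM), following a 20 min room-temperature incubation at pH 7.5.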
Nrf2 inh: inhibitors of Nrf2 signaling; Potency, µM (doses to about 46 µM), for the others: at the top dose activity change, negative = inhibition, usual class: inhibitors; 360,000 tested, 2.1% active; AID 504444; A549 ARE-Fluc reporter, luciferase luminescence, 18-24 h; also: potency is read from the fitted curve at half-maximal effect; % is scaled to controls: 0 for no effect and ±100 for the full control effect; nearly all actives have a fitted effect of over 60% in size
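Nrf2 activity is the BugLite luminescence, read 15 min after reagent at room temperature, following CellTiter-Fluor cytotoxicity readout (30 min, 37C). Compound titrations were applied for 18-24 h to 5000 A549 ARE_Fluc cells/well in 5% FBS OPTI-MEM.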
A549 tox: counter-screen for Nrf2 inhibitors: cytotoxicity in A549 cells; AID 504648; Potency, µM (titrated, usually from 46 µM), inactives show at the top dose activity change, negative = cytotoxicity, actives largely listed as inhibitors; 390,000 tested, 0.16% active; A549 ARE-Fluc cells, CellTiter-Fluor viability, 18-24 h; also: potency is read from the fitted curve at half-maximal effect; % is scaled to controls: 0 for no effect and ±100 for the full control effect
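Cytotoxicity counterscreen: CellTiter-Fluor fluorescence was measured in A549 ARE_Fluc cells after 18-24 h of compound exposure in a concentration series. The subsequent BugLite luminescent read reports ARE-luciferase activity.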
Numbers without * were called inactive; u = inconclusive; x = no result given. Unless noted, calls follow the shape of the dose curve; as a rule, active = well fitted curve in the direction sought with a large enough effect; inconclusive = small, poorly fitted or top-dose-only effect, or another doubt; inactive = no such curve, though single readings can be large; an effect the other way counts as inactive or inconclusive.

1: COC(=O)C1CCCCN1Cc1ccc2c(c1)CN(Cc1cn[nH]c1-c1ccc(F)cc1)CCO2 (stereo not given)
2: COc1ccc(C2c3c(N)nc(Cc4ccccc4)nc3Oc3ccc4ccccc4c32)cc1OC (stereo not given)
3: Oc1ccc(NCc2ccc(OCc3ccccc3)cc2)cc1
4: Oc1ccc(NCc2ccc(OCc3ccccc3Cl)cc2)cc1
5: Cc1c(C(=O)NCC(C)(C)N2CCOCC2)cnn1-c1nccc(-c2cccs2)n1
6: S=C(NC1CCCCC1)N1CCOCCOCCN(C(=S)NC2CCCCC2)CCOCCOCC1
entry no.,1,2,3,4,5,6
Nrf2 activator,x,x,u,7.9µM*,x,0%
miR-21 FLuc,x,x,-19%,1%,x,18%
GRP78 ERSR act,-3%,x,u,u,-1%,-2%
TSG101-PTAP inh,x,x,-6%,x,x,-3%
Nrf2 inh,x,u,-13%,u,x,16µM*
A549 tox,x,-11%,-5%,u,x,u

7: O=C(NC1CCCCCC1)C(=S)N1CCOCC1
8: CSc1ccc(-c2ccc(C(=O)NCC3CCCO3)c(N3CCC(O)CC3)n2)cc1 (stereo not given)
9: COC(=O)C1CCN(c2nc(CN(C)C3CCOC3)nc3cc(OC)c(OC)cc23)CC1 (stereo not given)
10: COCCn1c(C)cc(C2=NNC(=NC3CC3)SC2)c1C
11: C=CCN=C1NN=C(c2cc(C)n(CCOC)c2C)CS1
12: Cc1cc(C2=NNC(=NC3CC3)SC2)c(C)n1-c1ccccc1
entry no.,7,8,9,10,11,12
Nrf2 activator,0%,x,x,-3%,0%,-3%
miR-21 FLuc,-2%,x,x,u,25%,u
GRP78 ERSR act,3%,2%,-6%,-14%,-10%,-13%
TSG101-PTAP inh,-2%,x,x,-7%,0%,-3%
Nrf2 inh,2%,x,x,0.58µM*,u,6.5µM*
A549 tox,-4%,x,x,-9%,3%,0%

13: COc1ccc(-n2c(C)cc(C3=NNC(=NC4CC4)SC3)c2C)cc1
14: C=C1C[C@@]23CC[C@H]4[C@@](C)(CCC[C@@]4(C)C(=O)O)[C@@H]2CC[C@]1(O)C3
15: COc1cc(NC(=O)c2cc3c(C)nc4ccccc4c3o2)cc(OC)c1OC
16: Cc1nc2ccccc2c2oc(C(=O)Nc3ccc4c(c3)OCCO4)cc12
17: Cc1nc2ccccc2c2oc(C(=O)Nc3ccc(C(C)C)cc3)cc12
18: CC1(C)CC(C(=O)N2CCOc3ccc(CN4CCN(Cc5ccccn5)CC4)cc3C2)CCO1 (stereo not given)
entry no.,13,14,15,16,17,18
Nrf2 activator,7%,x,3%,1%,-1%,x
miR-21 FLuc,-45%,x,9%,-2%,21%,x
GRP78 ERSR act,1%,2%,-1%,0%,-3%,-3%
TSG101-PTAP inh,1%,x,-3%,-4%,-11%,x
Nrf2 inh,u,x,-21%,23µM*,15µM*,x
A549 tox,4%,x,3%,-29%,u,x

19: CCCCC(=O)/C=C/n1c(=S)oc2ccccc21
20: CC(C)OC(=O)n1c(=S)oc2ccccc21
21: COc1ccc(NC(=O)C2CC(=O)N/C(=N/N=C/c3ccco3)S2)cc1 (stereo not given)
22: O=C1CC(C(=O)Nc2ccc(Br)cc2)S/C(=N\N=C\c2ccco2)N1 (stereo not given)
23: O=C1CC(C(=O)Nc2ccccc2)S/C(=N\N=C\c2ccco2)N1 (stereo not given)
24: COc1cc(=O)n2c(c1C(=O)N(C)Cc1nonc1C)CCN(C(=O)c1cccc(C)c1C)CC2
entry no.,19,20,21,22,23,24
Nrf2 activator,10µM*,2%,2.5µM*,6.3µM*,u,x
miR-21 FLuc,20%,-9%,-3%,-2%,-7%,x
GRP78 ERSR act,-4%,-5%,-2%,-4%,-2%,0%
TSG101-PTAP inh,0%,-4%,0%,2%,0%,x
Nrf2 inh,u,14%,u,-7%,3%,x
A549 tox,-4%,0%,10%,-2%,-9%,x

Record cards, as listed above. Screens in order: Nrf2 activator, miR-21 FLuc, GRP78 ERSR act, TSG101-PTAP inh, Nrf2 inh, A549 tox
`CCCCC(=O)/C=C/n1c(=S)oc2ccccc21` is entered as 10µM*, 20%, -4%, 0%, u, -4%
`COc1ccc(NC(=O)C2CC(=O)N/C(=N/N=C/c3ccco3)S2)cc1` (stereo not given) is entered as 2.5µM*, -3%, -2%, 0%, u, 10%
`O=C1CC(C(=O)Nc2ccccc2)S/C(=N\N=C\c2ccco2)N1` (stereo not given) is entered as u, -7%, -2%, 0%, 3%, -9%

Next section
25: CC(C)C[C@@H](CN1CCCC1CN1C(=S)NC[C@@H]1Cc1ccc(O)cc1)N1C[C@H](Cc2ccc(O)cc2)N(CC2CCCCCC2)C1=S (stereo not given in full)
26: Oc1ccc(C[C@H]2CNC(=S)N2CC2CCCN2C[C@H](Cc2ccccc2)N2C[C@H](Cc3ccc(O)cc3)N(CCc3ccccc3)C2=S)cc1 (stereo not given in full)
27: CC(C)C[C@@H](CN1CCCC1CN1C(=S)NC[C@@H]1Cc1ccc(O)cc1)N1C[C@H](Cc2ccccc2)N(CC2CCCCCC2)C1=S (stereo not given in full)
28: COc1ccc2cc3cc(C(=O)Nc4ccccc4N4CCN(C)CC4)oc3nc2c1
29: COc1ccc2cc3cc(C(=O)NCCN4CCN(c5ccccc5F)CC4)oc3nc2c1
30: O=C(NCc1ccco1)c1cc2cc3ccc(Cl)cc3nc2o1
entry no.,25,26,27,28,29,30
Nrf2 activator,-3%,-1%,-1%,4%,0%,12%
miR-21 FLuc,x,x,x,2%,-8%,-14%
GRP78 ERSR act,-11%,0%,6%,-7%,1%,-9%
TSG101-PTAP inh,-4%,-7%,-11%,-3%,-3%,0%
Nrf2 inh,21µM*,15µM*,-7%,-17%,18µM*,23µM*
A549 tox,-7%,u,-17%,-8%,u,u

31: COc1ccc2cc3cc(C(=O)NCc4ccco4)oc3nc2c1
32: O=C(Nc1nc(-c2ccccn2)cs1)c1ccc([N+](=O)[O-])o1
33: O=C(Nc1nc(-c2ccccn2)cs1)c1ccc(-c2ccccc2F)o1
34: CC(=O)c1ccc(-c2ccc(C(=O)Nc3nc(-c4ccccn4)cs3)o2)cc1
35: Cc1ccc(C(=O)Nc2nc(-c3ccccn3)cs2)o1
36: CCOC(=O)c1c(C)[nH]c(C(=O)OC(C(=O)N(C)C)c2ccccc2)c1C (stereo not given)
entry no.,31,32,33,34,35,36
Nrf2 activator,4%,11µM*,6%,3%,2%,x
miR-21 FLuc,-3%,u,x,x,21%,x
GRP78 ERSR act,-2%,10%,32µM*,18%,4%,-2%
TSG101-PTAP inh,-4%,-4%,-2%,-11%,0%,x
Nrf2 inh,5.2µM*,5%,u,-6%,-26%,x
A549 tox,-25%,-6%,u,-15%,1%,x

37: COc1ccc(N=C2NC(=O)/C(=C\C=C\c3ccco3)S2)cc1
38: O=C(C[n+]1cccc2cccc(O)c21)c1ccccc1
39: C(=C\c1ccnc2ccccc12)/c1ccc2ccccc2n1
40: O=C(Nc1cc(Sc2ccccn2)cc([N+](=O)[O-])c1)c1cccc(F)c1
41: O=C(Nc1cc(Sc2nc3ccccc3s2)cc([N+](=O)[O-])c1)c1ccccc1
42: COc1ccc(N(Cc2ccccc2)S(=O)(=O)c2cccc(C(=O)Nc3ncccc3C)c2)cc1
43: COc1ccccc1N(Cc1ccccc1)S(=O)(=O)c1cccc(C(=O)Nc2ncccc2C)c1
entry no.,37,38,39,40,41,42,43
Nrf2 activator,13µM*,x,x,6%,9%,16%,2%
miR-21 FLuc,-22%,x,x,20%,20%,x,x
GRP78 ERSR act,10%,-3%,-4%,-2%,-2%,-2%,-4%
TSG101-PTAP inh,-2%,x,x,-4%,2%,-3%,2%
Nrf2 inh,4%,x,x,18µM*,u,18µM*,-25%
A549 tox,-17%,x,x,-9%,2%,-8%,-13%
